According to patent publication US20240261250A1 (priority 2020, published 2024):

System: primary microglia lysosomes
Assay: BPB entry into microglial lysosomes (kiss-and-run), quenching of lysosomal fluorescence
Settings: PAO + 1 mM BPB, WT microglia

SMILES: O=[As]c1ccccc1 (centres unmarked)
- discoloration of lysosomal fluorescence in BPB solution (at 50 seconds vs 0 seconds): 55.1%
- discoloration of lysosomal fluorescence in BPB solution (at 200 seconds vs 0 seconds): 69.1%
